Among the data in ChEMBL document CHEMBL4371059 (J Med Chem, 2019) are inhibition, Emax and Ratio Ki values, retold here.

Chains of the proteins cited; added tags and fusions are not shown.
UniProt P33533, whole entry: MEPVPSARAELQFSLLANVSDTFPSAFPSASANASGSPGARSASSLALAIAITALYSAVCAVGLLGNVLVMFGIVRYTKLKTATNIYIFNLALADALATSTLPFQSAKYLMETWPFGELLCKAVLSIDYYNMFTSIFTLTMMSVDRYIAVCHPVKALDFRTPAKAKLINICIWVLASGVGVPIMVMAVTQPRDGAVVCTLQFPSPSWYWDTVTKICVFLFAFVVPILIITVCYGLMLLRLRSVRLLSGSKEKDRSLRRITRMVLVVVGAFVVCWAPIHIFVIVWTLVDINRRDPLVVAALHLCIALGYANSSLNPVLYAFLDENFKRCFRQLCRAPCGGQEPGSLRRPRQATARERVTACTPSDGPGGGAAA
UniProt Q60492, whole entry: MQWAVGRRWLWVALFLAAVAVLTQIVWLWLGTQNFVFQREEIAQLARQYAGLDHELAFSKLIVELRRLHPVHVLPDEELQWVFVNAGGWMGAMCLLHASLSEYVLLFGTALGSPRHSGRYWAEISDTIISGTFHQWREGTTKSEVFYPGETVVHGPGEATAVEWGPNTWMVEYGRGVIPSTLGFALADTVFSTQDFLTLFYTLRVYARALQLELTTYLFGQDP
UniProt P41145, whole entry: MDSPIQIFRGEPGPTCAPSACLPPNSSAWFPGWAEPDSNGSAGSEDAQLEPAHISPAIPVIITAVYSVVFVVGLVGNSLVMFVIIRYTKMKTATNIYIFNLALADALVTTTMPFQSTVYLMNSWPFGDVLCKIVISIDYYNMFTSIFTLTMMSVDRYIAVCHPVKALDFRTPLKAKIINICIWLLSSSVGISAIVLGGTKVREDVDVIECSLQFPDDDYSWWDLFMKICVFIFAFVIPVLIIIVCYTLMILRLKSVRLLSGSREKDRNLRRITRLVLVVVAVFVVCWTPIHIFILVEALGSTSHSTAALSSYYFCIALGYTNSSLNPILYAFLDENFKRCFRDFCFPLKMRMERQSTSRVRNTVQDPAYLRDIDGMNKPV

Assay [1] addresses Delta-type opioid receptor (Rattus norvegicus) (UniProt P33533). The assay can be described thus: Displacement of [3H]DPDPE from DOR in Sprague-Dawley rat brain membranes at 1 uM after 120 mins by scintillation counting method relative to control.
Assay [2] concerns the target Sigma non-opioid intracellular receptor 1 (Cavia porcellus) (UniProt Q60492). Put plainly: Displacement of [3H]-(+)-pentazocine from sigma1 receptor in guinea pig brain membranes at 1 uM after 120 mins by scintillation counting method relative to control. (In general: In a radioligand displacement assay an active substance lowers the binding of a labelled ligand.)
In assay [3] the target is Kappa-type opioid receptor (Homo sapiens) (UniProt P41145). The assay can be described thus: Agonist activity at human KOR expressed in HEK293T cells assessed as inhibition of Galphai-mediated cAMP accumulation after 15 mins by microbeta counting assay relative to salvinorin A.
Assay [4] shares this target. Put plainly: Agonist activity at Tango-KOR (unknown origin) expressed in HTLA cells harboring TEV-fused-beta-arrestin 2 assessed as increase in beta arrestin 2 recruitment after overnight incubation by BrightGlo reagent based assay relative to salvinorin A. (In general: Activated receptors often draw arrestin, which recruitment assays turn into a signal.)
The species entered for assay [5] is Cavia porcellus. The assay can be described thus: Selectivity ratio of Ki for MOR in guinea pig brain membranes to Ki for KOR in guinea pig brain membranes.

Bounds are passed on as bounds.

As for `O=C(Cc1ccc(Cl)c(Cl)c1)N1CCN(Cc2ccc(F)cc2)[C@H]2CCC[C@H](N3CCCC3)[C@H]21`, the inhibition in assay [1] and in assay [2] was > 50% in each case. Besides, the Emax in assay [3] came to 97%; in assay [4], 105%.

On to `O=C(Cc1ccc(Cl)c(Cl)c1)N1CCN(CCF)[C@H]2CCC[C@H](N3CCCC3)[C@H]21`, for which the Ratio Ki in assay [5] is > 4500. Besides, the inhibition in assay [1] was 5%.

Take `COC(=O)N1CCN(C(=O)Cc2ccc(Cl)c(Cl)c2)[C@@H]2[C@@H](N3CCCC3)CCC[C@@H]21`: the inhibition in assay [1] is > 50%; in assay [2] it was 0%.

For `O=C(Cc1ccc(Cl)c(Cl)c1)N1CCN(C(=O)COCCF)[C@H]2CCC[C@H](N3CCCC3)[C@H]21`, the inhibition in assay [1] is > 50%; in assay [2], 13%. For the same molecule, the Emax in assay [3] was 97%; in assay [4] it was 103%.

`O=C(Cc1ccc(Cl)c(Cl)c1)N1CCN(CCCCF)[C@H]2CCC[C@H](N3CCCC3)[C@H]21`: the inhibition in assay [1] amounted to 17%; in assay [2], 0%.

As a reminder, the inhibition is how much of the control response was suppressed. A high value points to strong suppression. One may read the Emax as the size of the effect at its maximum, as opposed to the concentration needed.
